Experimental data reported in patent US6368619B1, “Hydrophobic preparations of hydrophilic species and process for their preparation” (Provalis UK Limited, priority 1993, dated 2002).

Tests used:
[1] = Percent sedimentation after 24 hours of macromolecules dispersed in oleic acid with and without PC; assay type: physicochemical; conditions: 300 μl oleic acid, error ±5%
Procedure: 10 mg of cytochrome C, haemoglobin and FITC-dextran were each dissolved in 1 ml of distilled water. 4.4 mg of RNA (extracted from Torula yeast) was dissolved in 1 ml of phosphate-buffered saline. 2×50 μl of each of these solution was dispensed into fresh glass tubes, and to one of each of these sets of solutions was added 250 μl of SUVs prepared as in example 1 at a concentration of 40 mg/ml of egg yolk lecithin (PC).
Both sets of tubes were shell-frozen and lyophilised overnight as above. The following day 300 μl of oleic acid was added to each of the tubes. The samples were left to stand at room temperature with occasional vortexing for one hour until complete dispersion had been achieved. The oils were allowed to stand overnight. The turbidity of the samples prepared without PC was greater than those containing PC.
The following day, sediments had settled out in the samples prepared without PC. Without disturbing any of the samples, the top 150 μl of each sample was taken off, and the absorbances measured of both the material removed, and the material left behind, after mixing; comparison of the two readings allowed one to calculate the percentage sedimentation for samples with and without PC (error in measurements ±5%) Values obtained are listed below.

[2] = Dispersion of hydrophilic species/amphiphile array in hydrophobic solvent: visual optical clarity; assay type: physicochemical; conditions: Example 15: 1 mg, 0.2 g egg PC SUVs, oleic acid, within 2 hours

Substance	Percent sedimentation after 24 hours, +PC ([1]; Example 17: with egg yolk PC SUVs) [%]	Percent sedimentation after 24 hours, −PC ([1]; Example 17: without PC) [%]	appearance of dispersion [2]
FITC dextran [reference compound]	0	68	–
Nisin [reference compound]	–	–	crystal clear dispersion
